This note sets out measurements from US12246008B2, “4-amino or 4-alkoxy-substituted aryl sulfonamide compounds with selective activity in voltage-gated sodium channels” (Merck Sharp & Dohme LLC, priority 2018, dated 2025).

Chains of the proteins cited; added tags and fusions are not shown.
UniProt Q14524, whole entry: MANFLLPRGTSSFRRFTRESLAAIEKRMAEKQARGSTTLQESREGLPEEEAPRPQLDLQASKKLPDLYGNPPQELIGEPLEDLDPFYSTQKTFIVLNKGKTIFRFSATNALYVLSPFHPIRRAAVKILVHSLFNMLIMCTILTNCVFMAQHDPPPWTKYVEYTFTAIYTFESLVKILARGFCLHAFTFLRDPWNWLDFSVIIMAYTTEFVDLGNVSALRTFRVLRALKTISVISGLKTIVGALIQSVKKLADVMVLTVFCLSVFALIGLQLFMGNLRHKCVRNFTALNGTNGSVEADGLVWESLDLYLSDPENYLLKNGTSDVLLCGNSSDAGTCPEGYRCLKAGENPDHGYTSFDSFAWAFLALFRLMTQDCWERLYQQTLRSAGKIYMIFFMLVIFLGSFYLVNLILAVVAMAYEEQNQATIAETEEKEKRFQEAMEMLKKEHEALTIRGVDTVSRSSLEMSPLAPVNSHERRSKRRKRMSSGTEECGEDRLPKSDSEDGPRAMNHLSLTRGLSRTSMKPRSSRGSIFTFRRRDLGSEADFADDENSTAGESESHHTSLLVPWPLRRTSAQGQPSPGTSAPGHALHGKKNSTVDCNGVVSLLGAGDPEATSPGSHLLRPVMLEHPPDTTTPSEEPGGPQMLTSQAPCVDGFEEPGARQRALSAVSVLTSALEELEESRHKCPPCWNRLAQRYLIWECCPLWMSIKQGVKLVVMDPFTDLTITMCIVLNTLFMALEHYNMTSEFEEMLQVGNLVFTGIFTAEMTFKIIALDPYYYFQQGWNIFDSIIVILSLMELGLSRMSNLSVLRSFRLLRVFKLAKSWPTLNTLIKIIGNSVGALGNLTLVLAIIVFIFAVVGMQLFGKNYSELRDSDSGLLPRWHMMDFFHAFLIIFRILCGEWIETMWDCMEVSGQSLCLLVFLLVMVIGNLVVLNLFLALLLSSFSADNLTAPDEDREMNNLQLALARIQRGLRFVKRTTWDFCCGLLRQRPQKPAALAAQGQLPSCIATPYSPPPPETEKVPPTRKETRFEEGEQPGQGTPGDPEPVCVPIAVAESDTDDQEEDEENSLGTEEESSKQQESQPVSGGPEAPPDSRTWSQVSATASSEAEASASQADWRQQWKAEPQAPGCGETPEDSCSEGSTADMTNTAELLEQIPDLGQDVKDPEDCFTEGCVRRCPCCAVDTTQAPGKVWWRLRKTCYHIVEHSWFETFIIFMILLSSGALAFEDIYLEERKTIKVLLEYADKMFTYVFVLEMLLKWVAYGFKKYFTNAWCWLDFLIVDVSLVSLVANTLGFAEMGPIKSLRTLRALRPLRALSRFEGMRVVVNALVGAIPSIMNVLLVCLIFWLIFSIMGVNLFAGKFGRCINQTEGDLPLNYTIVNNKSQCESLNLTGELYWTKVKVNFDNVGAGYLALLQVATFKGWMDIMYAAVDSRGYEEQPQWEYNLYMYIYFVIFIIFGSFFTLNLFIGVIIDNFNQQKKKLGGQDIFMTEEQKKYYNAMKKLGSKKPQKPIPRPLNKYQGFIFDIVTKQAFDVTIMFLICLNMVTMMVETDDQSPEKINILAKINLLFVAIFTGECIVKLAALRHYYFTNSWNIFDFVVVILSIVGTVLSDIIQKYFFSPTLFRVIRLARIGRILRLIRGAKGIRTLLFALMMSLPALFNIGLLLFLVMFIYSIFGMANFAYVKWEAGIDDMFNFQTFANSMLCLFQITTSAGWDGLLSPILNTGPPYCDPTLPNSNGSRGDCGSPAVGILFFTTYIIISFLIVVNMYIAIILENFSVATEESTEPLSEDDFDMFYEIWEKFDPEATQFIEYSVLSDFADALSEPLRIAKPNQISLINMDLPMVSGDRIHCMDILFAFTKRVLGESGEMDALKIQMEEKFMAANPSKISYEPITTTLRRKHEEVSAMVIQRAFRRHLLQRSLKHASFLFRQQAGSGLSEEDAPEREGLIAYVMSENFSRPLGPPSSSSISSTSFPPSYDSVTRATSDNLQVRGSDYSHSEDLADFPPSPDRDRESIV
UniProt Q9UQD0, whole entry: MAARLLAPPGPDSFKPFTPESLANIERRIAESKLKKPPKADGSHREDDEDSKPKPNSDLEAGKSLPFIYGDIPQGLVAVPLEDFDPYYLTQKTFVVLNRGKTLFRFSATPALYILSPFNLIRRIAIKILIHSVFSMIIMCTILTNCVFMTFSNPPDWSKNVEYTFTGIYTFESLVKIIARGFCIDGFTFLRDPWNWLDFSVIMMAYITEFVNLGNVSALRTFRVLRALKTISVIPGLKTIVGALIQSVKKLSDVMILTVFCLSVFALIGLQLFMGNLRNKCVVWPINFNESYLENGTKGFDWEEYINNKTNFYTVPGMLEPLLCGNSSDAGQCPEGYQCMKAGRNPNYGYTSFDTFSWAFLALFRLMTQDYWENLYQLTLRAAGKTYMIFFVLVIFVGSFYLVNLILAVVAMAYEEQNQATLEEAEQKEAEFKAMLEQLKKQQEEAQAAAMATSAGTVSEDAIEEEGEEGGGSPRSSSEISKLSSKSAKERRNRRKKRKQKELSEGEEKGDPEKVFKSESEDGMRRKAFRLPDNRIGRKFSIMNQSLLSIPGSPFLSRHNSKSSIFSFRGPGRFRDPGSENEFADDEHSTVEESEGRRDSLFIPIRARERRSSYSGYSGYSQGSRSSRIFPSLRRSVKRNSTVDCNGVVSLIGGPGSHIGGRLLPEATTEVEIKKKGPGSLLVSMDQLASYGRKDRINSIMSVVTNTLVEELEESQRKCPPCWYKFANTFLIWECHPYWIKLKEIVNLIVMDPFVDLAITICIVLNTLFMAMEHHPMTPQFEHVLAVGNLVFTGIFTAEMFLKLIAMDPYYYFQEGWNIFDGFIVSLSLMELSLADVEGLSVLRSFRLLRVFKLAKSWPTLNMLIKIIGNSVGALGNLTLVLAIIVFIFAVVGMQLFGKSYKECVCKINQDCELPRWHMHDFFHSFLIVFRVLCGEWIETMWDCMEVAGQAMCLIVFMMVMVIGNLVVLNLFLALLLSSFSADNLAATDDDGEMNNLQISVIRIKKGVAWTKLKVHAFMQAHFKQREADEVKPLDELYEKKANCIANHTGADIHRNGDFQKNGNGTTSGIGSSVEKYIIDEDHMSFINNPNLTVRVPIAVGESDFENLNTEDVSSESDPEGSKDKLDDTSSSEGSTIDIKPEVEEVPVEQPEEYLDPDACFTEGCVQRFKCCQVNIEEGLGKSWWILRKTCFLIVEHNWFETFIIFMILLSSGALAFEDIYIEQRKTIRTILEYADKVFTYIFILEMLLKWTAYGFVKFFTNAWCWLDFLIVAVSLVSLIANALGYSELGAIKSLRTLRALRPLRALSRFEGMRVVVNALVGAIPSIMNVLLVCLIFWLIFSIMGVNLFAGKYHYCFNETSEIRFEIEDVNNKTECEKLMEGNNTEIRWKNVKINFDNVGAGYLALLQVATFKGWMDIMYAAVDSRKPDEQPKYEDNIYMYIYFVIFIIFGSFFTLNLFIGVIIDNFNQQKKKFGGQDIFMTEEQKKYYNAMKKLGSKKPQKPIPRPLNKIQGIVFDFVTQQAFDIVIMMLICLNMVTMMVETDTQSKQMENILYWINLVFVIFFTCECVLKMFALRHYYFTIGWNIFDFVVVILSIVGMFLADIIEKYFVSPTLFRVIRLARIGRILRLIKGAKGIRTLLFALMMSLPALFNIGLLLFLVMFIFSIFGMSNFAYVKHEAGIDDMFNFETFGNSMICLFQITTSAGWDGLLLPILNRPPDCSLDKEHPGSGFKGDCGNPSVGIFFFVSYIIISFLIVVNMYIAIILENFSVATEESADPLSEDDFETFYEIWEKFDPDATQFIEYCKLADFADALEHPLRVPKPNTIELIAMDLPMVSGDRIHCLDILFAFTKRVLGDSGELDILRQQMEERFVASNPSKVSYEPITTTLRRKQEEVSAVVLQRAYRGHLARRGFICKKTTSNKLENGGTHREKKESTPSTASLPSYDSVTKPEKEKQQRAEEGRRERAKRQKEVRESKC
UniProt Q15858, whole entry: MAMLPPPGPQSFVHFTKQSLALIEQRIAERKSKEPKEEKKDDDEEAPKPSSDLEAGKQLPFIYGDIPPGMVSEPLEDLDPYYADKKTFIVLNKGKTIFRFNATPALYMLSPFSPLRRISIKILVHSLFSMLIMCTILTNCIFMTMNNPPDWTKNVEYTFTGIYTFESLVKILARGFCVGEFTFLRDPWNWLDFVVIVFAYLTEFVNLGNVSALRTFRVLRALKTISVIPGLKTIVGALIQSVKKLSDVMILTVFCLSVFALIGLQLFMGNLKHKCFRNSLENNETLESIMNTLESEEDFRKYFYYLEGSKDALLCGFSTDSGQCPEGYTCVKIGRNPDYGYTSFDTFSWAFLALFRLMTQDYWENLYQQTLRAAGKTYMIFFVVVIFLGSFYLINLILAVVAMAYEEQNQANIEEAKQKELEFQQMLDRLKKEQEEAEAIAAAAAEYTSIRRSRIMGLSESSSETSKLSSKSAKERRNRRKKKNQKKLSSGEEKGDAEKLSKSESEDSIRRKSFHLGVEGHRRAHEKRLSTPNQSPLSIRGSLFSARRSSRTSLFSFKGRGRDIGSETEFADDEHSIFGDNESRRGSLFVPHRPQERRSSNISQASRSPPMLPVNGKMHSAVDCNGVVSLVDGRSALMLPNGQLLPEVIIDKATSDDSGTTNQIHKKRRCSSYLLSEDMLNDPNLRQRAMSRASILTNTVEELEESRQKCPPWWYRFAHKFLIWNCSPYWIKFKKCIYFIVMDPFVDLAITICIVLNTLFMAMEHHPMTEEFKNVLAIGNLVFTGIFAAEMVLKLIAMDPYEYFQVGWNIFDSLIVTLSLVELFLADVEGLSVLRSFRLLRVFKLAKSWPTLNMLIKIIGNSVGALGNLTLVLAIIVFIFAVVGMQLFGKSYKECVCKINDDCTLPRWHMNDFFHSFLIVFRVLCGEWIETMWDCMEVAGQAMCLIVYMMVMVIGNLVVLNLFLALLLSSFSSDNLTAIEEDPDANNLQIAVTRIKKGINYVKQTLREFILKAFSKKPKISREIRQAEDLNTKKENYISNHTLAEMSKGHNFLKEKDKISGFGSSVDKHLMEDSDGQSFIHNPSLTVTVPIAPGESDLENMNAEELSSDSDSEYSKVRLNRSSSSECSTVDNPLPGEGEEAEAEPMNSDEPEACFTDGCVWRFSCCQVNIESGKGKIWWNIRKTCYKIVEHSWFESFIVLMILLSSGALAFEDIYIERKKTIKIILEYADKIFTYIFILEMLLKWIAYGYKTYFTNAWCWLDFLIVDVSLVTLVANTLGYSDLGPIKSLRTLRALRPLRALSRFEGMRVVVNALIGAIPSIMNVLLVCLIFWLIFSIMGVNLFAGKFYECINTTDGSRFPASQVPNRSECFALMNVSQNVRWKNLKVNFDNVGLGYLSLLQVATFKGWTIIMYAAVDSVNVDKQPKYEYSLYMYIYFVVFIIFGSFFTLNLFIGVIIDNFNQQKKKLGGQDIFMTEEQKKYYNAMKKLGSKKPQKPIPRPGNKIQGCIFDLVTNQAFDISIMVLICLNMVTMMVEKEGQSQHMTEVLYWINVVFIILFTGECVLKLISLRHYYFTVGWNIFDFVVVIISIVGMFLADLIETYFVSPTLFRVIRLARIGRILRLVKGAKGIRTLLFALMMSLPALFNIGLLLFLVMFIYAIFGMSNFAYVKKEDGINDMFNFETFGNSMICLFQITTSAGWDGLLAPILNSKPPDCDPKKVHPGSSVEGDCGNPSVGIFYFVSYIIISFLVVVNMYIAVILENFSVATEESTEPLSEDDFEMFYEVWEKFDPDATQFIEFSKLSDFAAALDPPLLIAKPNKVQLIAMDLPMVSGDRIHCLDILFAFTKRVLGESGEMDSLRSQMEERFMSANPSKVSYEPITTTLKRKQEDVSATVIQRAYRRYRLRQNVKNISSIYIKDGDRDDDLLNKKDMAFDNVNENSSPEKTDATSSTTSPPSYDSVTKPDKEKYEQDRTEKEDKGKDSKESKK

Holding throughout (experiment): Qube automated patch-clamp assay, inhibition of sodium current
The target of one series is NaV1.5 (Homo sapiens, UniProt Q14524). Conditions: read-out: Nav1.5 (nM); −80 mV; holding potential −80 mV; max concentration tested 33750 nM. As to the method:
(§1) Compounds were tested on human Nav1.7 and Nav1.6 channels stably expressed in HEK 293 cells. Sodium current measurements on the Qube: An automated patch-clamp assay on the Qube platform (Sophion Bioscience) was used to measure inhibition of human Nav1.7 and 1.6 channels. Cells were sealed on a planar substrate using the multihole technology. Cells expressing human Nav1.7 channels were held at −75 mV or −80 mV. Cells expressing human Nav1.6 channels were held at −65 mV. A train of 6 consecutive test pulses to −10 mV, preceded by 8 s prepulses to −115 mV, was applied at a frequency of 0.1 Hz before and after compound addition. Cells in each Qchip well were incubated in compound for 5 minutes before measuring inhibition. Peak currents were measured in control conditions and after compound addition. The following recording solutions were used (mM). External Nav1.6: 150 NaCl, 2 CaCl2), 5 KCl, 1 Mg Cl2, 10 HEPES, 12 Dextrose; external Nav1.7: 40 NaCl, 120 NMDG, 1 KCl, 0.5 MgCl2, 5 HEPES, 2.7 CaCl2); internal: 120 CsF, 30 CsCl, 10 EGTA, 5 HEPES, 5 NaF, 2 MgCl2. Compounds were prepared as 10 mM stock solutions in DMSO. 10 point compound titrations were generated using the Echo acoustic liquid handling instrument and glass coated 384 well plates. The final DMSO concentration in the assay was 0.3%. […] IC50 values were determined by fitting to the Hill equation. […]

In series [1] the target is human Nav1.6 channels stably expressed in HEK 293 cells (Homo sapiens, UniProt Q9UQD0). Conditions: read-out: NaV1.6 (nM); −65 mV; holding potential −65 mV; max concentration tested 33750 nM. Here is the method:
(§2) Qube™ Experimental Procedure:
as §1

The target of series [2] is human Nav1.7 channels stably expressed in HEK 293 cells (Homo sapiens, UniProt Q15858). Particulars: read-out: NaV1.7 (nM); −80 mV; holding potential −80 mV; max concentration tested 33750 nM. Here is the method:
as §2, §1

As to `C[C@@H](N)[C@H](CNc1ccc(S(=O)(=O)Nc2ncns2)cc1Cl)CC1(CCN)CCC1`, the IC50 at NaV1.5 is greater than 33800 nM; in series [1], 10400 nM; in series [2] it was 27 nM.
